Kd data for two substances are collected here from paper PMC5704011.

pKd: −log10 of the molar value. Where two headings read alike, the source gives them in different places.

The target in assay [1] is PDGFRβ (Homo sapiens) (UniProt P09619). The conditions noted are these: cited from earlier work.
For assay [2] the target is unchanged. Kind of assay: SPR; BIAcore 3000, 25 °C, CM5 chip; receptor immobilised by amine coupling (~200-500 R.U.); ligand injected at 40, 20 and 10 nM in HBS-EP pH 7.4 (10 mM HEPES, 3 mM EDTA, 150 mM NaCl, 0.005% TWEEN-20); angiopoietin-4 reference cell subtracted; global 1:1 Langmuir fit; χ^2-to-Rmax < 1.0 taken as a true interaction. A general note: In SPR one partner is held on a chip, and binding of the other changes the refractive index at the surface.

As a reminder, the pKd is the Kd on a negative log10 scale, so that one unit is a factor of ten.

As for PDGF-BB (from UniProt P01127), the pKd in assay [1] is 8.80.

As to “human recombinant PDGF-DD (from UniProt Q9GZP0 19-370) (ligand)”, the pKd in assay [2] was 7.17.
